Earlier results, collected in article PMC11322411.

Columns and labels:
[1] = biological target: SMO PKI motif peptide PKI motif (Mus musculus) (UniProt P56726); conditions: cited from earlier work
[2] = biological target: SMO pCT pCT (Mus musculus) (UniProt P56726); test: SPR; conditions: cited from earlier work

## PKA-C (from UniProt P05132)
[1]
  Kd: 923 nM
[2]
  Kd: 752 nM
